Like-named read-outs stand apart in the source and are kept apart here.
Assays:
[1] = system: ovarian cancer cell line SKOV3i.p.1; experiment: Unstaged (prophylactic) orthotopic murine model of ovarian cancer; type: in vivo, nude mice; details: i.p. once a week, 6 doses; 54 days after inoculation
Method: 1. Tumor cells were inoculated intraperitoneally (i.p.) into T-cell deficient nude mice at 2×10^6 cells per mouse. […] Antibody was dosed once a week for a total of 6 doses. Percent survival was calculated over time.

[2] = cancer patients, cited from earlier work

| Substance | percent survival [1] | average (% CV) AUC ([2]; 0.3 MU SC) | average (% CV) AUC ([2]; 1 MU SC) | average (% CV) AUC ([2]; 3 MU SC) |
| --- | --- | --- | --- | --- |
| Herceptin®: anti-HER2 monoclonal antibody (Genentech) | not significantly greater than that observed for the untreated control group |  |  |  |
| recombinant human native IL-2: recombinant human native IL-2 from published literature (Gustavson 1998) |  | 120 (38) U*hr/ml | 177 (36) U*hr/ml | 359 (46) U*hr/ml |
